The series can be described thus: Volume of distribution at steady state in cynomolgus monkey at 20 mg/kg, iv measured upto 24 hrs by LC-MS/MS analysis. The series is classed as ADME, organism-based, Macaca fascicularis. Conditions: in vivo.

As usually defined, the Vdss is a proportionality between amount in the body and measured concentration, not a real space.

`N#C[C@@]1(c2ccc3c(N)ncnn23)O[C@H](CO)[C@@H](O)[C@H]1O` [GS-441524] showed a Vdss of 1.03 L/kg.

The record behind these values is ChEMBL document CHEMBL5321279 (J Med Chem, 2023).
